Values of other authors in publication PMC3121697, “Predicting Binding to P-Glycoprotein by Flexible Receptor Docking” (PLoS Computational Biology, 2011).
Like-named read-outs stand apart in the source and are kept apart here.

Test system: P-gp
Settings: cited from earlier work

| SMILES | P-gp interaction | P-gp interaction (not told) |
| --- | --- | --- |
| Cc1nc2n(c(=O)c1CCN1CCC(c3noc4cc(F)ccc34)CC1)CCCC2 [Risperidone] | Y |  |
| CCOC(=O)c1ncn2c1CN(C)C(=O)c1cc(F)ccc1-2 [Flumazenil] |  | N |
| CC(C)CN(C[C@@H](O)[C@H](Cc1ccccc1)NC(=O)O[C@H]1CCOC1)S(=O)(=O)c1ccc(N)cc1 [Amprenavir] |  | Y |
